Data on one compound can be found in US20140301947A1, “METHODS TO PREDICT BINDING AFFINITY OF TSPO IMAGING AGENTS TO TSPO” (IMPERIAL INNOVATIONS LIMITED, priority 2011, published 2014).

Assay [1] has as its target T1, TSPO (Homo sapiens, UniProt P30536). The experiment in a line: Competition binding with [3H]PK11195 in human brain (method of J Nucl Med 2011;52:24-32). Also on record: from tissue; host or cells: human brain (membrane preparation, by the cited method). An excerpt: (§1) Thus, for example, the binding affinity of the compound may be determined in tissue derived from a HAB and in tissue derived from a LAB. An appropriate method may comprise the following steps: • obtain samples from human volunteers of tissue which contains TSPO (for example brain (for example for archive samples) or platelets (for example from blood)).
(§2) In more detail, as an example, a 48 well plate may be used, for example with 8-12 different concentrations of experimental drug for each experiment (be it the radiolabelled drug for saturation studies or the un-radiolabelled drug for competition studies). Concentrations may range from around 0.1 nM, increasing in roughly half logs (ie 0.1 nM, 0.3 nM, 1 nM, 3 nM etc) up to around 10,000 nM. 3-4 wells may be used for each concentration and the average taken to increase the precision around the estimate for each data point. The amount of tissue material required depends on how much TSPO is in the chosen tissue. For brain ˜100 micrograms of protein in each well (500 microlitres) may typically be used, giving a protein concentration of ˜200 micrograms/ml. Similar amounts may be used for platelets. For a tissue with very high TSPO levels (eg adrenal gland) a lot less protein would be needed.

In assay [2] the target is TSPO (Homo sapiens, UniProt P30536, T147A). The description is as above. Details: from tissue; host or cells: human brain (membrane preparation, by the cited method). The conditions noted are these: Ki HAB, high affinity binders, human brain; nM.
From the text: as §1, §2

In assay [3] the target is T1, TSPO. The description is as above. The settings on record: read-out: Ki MAB; mixed affinity binders, single value, human brain. Also on record: Ki MAB; Vinpocetine Ki, MAB.
From the text: as §1, §2

In assay [4] the test system is TSPO. The assay is described as above.
From the text: as §1, §2

Assay [5] has as its target T1, TSPO. The conditions noted are these: used to generate Ki; read-out: Kd for [3H]PK11195; cited from earlier work.

Read-outs that look alike come from different tables or passages of the source.

For `CCC(C)N(C)C(=O)c1cc2ccccc2c(-c2ccccc2Cl)n1` (stereo not drawn) [PK11195, 1-(2-Chlorophenyl)-N-methyl-N-(1-methylpropyl)-3-isoquinolinecarboxamide], the Ki on TSPO [1] (Ki LAB, low affinity binders, human brain) is 0.0223 ± 0.0022 µM; on TSPO [1] (affinity for the "Low Affinity receptor", grouping of ligands into 3 distinct affinities), below 0.031 µM; at TSPO [2], 28.3 ± 4 nM; on TSPO [3] it was 0.0236 ± 0.0055 µM. For the same compound, in the assay with TSPO [4], the LAB/HAB is 0.8. In the assay on TSPO [4], the “ratio of specific signal, HAB” value is given as 0.8. In addition, the “ratio of specific signal, LAB” value in the assay on TSPO [4] amounted to 1. Further, the “ratio of specific signal, MAB” value in the assay with TSPO [4] came out at 0.9. In addition, the dissociation constant Kd on TSPO [5] was 0.0292 µM.
